Reference: US12582652B2, “3-(ethoxydifluoromethyl)-6-(5-fluoro-6-(2,2,2-trifluoroethoxy)pyridin-3-yl)-[1,2,4]triazolo[4,3-a]pyrazine as an ion channel modulator” (Praxis Precision Medicines, Inc., priority 2022, dated 2026)

Amino acid sequences for entries named in this document (tags omitted).
UniProt Q9UQD0, whole entry: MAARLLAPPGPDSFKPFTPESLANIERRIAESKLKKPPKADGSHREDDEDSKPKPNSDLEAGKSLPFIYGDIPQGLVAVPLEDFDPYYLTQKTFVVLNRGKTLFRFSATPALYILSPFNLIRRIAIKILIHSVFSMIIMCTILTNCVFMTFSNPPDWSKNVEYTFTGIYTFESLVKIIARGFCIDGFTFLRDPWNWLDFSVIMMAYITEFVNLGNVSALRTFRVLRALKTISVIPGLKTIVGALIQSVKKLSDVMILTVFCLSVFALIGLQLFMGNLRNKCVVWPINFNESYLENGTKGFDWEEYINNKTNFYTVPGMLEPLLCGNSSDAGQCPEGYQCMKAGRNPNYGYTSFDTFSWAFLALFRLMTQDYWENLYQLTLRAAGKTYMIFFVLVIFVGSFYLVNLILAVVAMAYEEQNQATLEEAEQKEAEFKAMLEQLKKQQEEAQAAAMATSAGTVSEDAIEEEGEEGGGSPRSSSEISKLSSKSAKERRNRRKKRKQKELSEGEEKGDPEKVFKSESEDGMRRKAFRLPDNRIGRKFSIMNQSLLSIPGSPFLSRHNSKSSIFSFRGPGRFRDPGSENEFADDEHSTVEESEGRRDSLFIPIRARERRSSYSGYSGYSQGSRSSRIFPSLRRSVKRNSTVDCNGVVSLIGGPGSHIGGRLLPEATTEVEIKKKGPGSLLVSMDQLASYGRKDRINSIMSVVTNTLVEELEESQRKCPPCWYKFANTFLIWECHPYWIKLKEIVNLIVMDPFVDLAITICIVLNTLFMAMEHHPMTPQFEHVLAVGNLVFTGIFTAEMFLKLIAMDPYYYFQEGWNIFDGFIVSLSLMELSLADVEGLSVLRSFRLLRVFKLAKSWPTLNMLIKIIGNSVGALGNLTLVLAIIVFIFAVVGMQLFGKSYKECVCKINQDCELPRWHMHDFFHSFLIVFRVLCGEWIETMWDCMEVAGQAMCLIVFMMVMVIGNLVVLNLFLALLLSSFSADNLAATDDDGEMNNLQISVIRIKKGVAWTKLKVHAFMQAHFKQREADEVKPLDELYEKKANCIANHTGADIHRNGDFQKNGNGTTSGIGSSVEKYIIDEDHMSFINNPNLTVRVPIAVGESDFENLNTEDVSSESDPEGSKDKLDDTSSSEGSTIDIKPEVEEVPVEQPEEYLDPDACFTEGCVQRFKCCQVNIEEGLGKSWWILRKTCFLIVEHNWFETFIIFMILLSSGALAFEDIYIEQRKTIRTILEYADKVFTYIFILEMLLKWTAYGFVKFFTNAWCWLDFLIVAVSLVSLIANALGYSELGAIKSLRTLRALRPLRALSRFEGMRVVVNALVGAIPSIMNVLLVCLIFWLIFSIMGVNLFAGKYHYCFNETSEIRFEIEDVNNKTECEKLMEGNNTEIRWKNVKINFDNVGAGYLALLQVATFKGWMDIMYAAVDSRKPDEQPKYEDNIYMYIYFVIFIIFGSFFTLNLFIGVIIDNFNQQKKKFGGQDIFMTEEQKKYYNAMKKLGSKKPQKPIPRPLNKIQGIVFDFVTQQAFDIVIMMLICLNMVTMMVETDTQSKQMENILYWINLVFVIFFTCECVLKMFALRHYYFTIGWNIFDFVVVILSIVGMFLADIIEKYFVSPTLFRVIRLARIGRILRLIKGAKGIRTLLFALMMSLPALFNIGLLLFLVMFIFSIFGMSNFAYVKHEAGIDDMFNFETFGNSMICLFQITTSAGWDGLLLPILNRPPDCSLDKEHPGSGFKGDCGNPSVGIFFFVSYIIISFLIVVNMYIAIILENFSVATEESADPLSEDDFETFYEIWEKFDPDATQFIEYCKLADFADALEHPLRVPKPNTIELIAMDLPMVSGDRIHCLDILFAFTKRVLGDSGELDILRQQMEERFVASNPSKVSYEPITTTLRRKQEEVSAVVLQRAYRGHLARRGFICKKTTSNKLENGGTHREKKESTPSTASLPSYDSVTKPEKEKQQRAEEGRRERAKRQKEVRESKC

Assays:
human NaV1.6 [1] = target: T1, human NaV1.6 (Homo sapiens, UniProt Q9UQD0); assay: Peak INa use-dependent block (UDB-10 Hz), PatchXpress patch clamp; assay type: cell-based; settings: hNaV1.6
T1 construct: stably expressing either human NaV1.6 (NP_055006); expressed in transfected cells

human NaV1.6 [2] = target: T1, human NaV1.6; assay: Peak INa voltage-dependent block (VDB), PatchXpress patch clamp; assay type: cell-based; settings: hNaV1.6
Procedure: (§1) HEK-293 cell lines stably expressing either human NaV1.6 (NP_055006), mouse NaV1.6 (NP_035453.2), or rat NaV1.6 (NP_062139) were used. All cells were seeded at 2×10^6 cells per Nunc T75 flask for 2 days in culture. At time of harvest for assays, the cell counts were approximately 6×10^6 cells. Cells were washed (1×) in DPBS (Hyclone, Cat #SH30028.03) for approximately 30 seconds. 1 mL of 1×0.05% Trypsin-EDTA (GIBCO Cat #25300-054) was added and swirled around to cover the bottom of the flask and was allowed to sit on the cells for approximately 4 minutes (±90% of the cells were lifted by light tapping of the flask). […]
(§2) The same intracellular recording solution was used for the persistent and peak INa assays, which contained: 135 mM CsF, 10 mM CsCl, 5 mM NaCl, 10 mM HEPES, 5 mM EGTA at a pH of 7.4 (adjusted with CsOH) and a measured osmolarity of 298 mOsm (adjusted with mannitol). For the persistent INa assay, the external recording solution contained: 135 mM NaCl, 5.4 mM KCl, 5 mM glucose, 2 mM CaCl2), 1 mM MgCl2, 10 mM HEPES, and 200 nM ATX-II (sea anemone toxin, Alomone Labs; Jerusalem, Israel) at a pH of 7.4 (adjusted with NaOH) and a measured osmolarity of 300 mOsm (adjusted with mannitol). […]

human NaV1.6 [3] = target: T1, human NaV1.6; assay: Peak INa tonic block (TB), PatchXpress patch clamp; assay type: cell-based; settings: hNaV1.6
Procedure: as §1, §2

human NaV1.6 [4] = target: T1, human NaV1.6; assay: ATX-II activated late (persistent) INa block, PatchXpress patch clamp; assay type: cell-based; settings: hNaV1.6, all assay conditions
Procedure: as §1, §2
Late (persistent) current Block: The inhibition of ATX-II activated late current was measured using a 200 ms voltage step to 0 mV. […]

CA1 pyramidal neurons = assay: Intrinsic excitability (evoked action potentials) of CA1 pyramidal neurons, brain slice whole-cell current clamp; assay type: cell-based, mouse
Procedure: Three hundred micrometer coronal hippocampal slices were cut on a vibratome (VT1200; Leica) for whole-cell patch-clamp experiments. Slices were incubated for a minimum of 1 hour in the incubation solution at room temperature before patching.
Brain slices were transferred to a submerged recording chamber on an upright microscope (Slicescope Pro 1000; Scientifica) and were perfused (2 ml/min) with the extracellular artificial cerebral spinal fluid (aCSF) recording solution at 32° C. […]
Studies were performed using whole-cell current clamp recording mode. […] Once baseline action potential firing was determined in the presence of the extracellular aCSF recording solution (baseline), Compound 1 (300 nM or 3 μM) was washed onto the slice for 5 minutes before repeating the action potential generating protocol (FIG. 1B).
Data were analyzed using Axograph X software. Individual action potentials were identified and counted using a +50 mV amplitude threshold relative to pre-event baseline. […] Action potential amplitudes were determined relative to the pre-event baseline at the +200 pA current injection step for each cell. […] For statistical comparisons between groups, the total number of action potentials fired per cell was calculated. […]

male CD-1 mice = assay: Spontaneous locomotor activity (sLMA) test; settings: brain TC50 (sLMA) / brain EC50 (MES), free concentrations

| Compound | Ratio to Peak INa (TB) (UDB-10 Hz) (human NaV1.6 [1]) | Ratio to Pers. INa (Peak INa UDB-10 Hz / persistent INa) (human NaV1.6 [1]) | Ratio to Pers. INa (Peak INa VDB / persistent INa) (human NaV1.6 [2]) | Ratio to Pers. INa (Peak INa TB / persistent INa) (human NaV1.6 [3]) | preference for persistent INa relative to peak INa (human NaV1.6 [4]) | neuronal excitability, number of evoked APs (CA1 pyramidal neurons; 45 μmol/L CBZ (peak INa VDB IC50)) | AP amplitude (CA1 pyramidal neurons; +200 pA current injection, 0.3 μmol/L Compound 1, 45 μmol/L CBZ) | PI (Brain) (male CD-1 mice) |
| --- | --- | --- | --- | --- | --- | --- | --- | --- |
| NC(=O)N1c2ccccc2C=Cc2ccccc21 [Carbamazepine] | 1.6 | 18 | 0.6 | 30 | no preference for persistent INa | more robust reduction | more pronounced reduction |  |
| Nc1nnc(-c2cccc(Cl)c2Cl)c(N)n1 [Lamotrigine, reference compound] |  |  |  |  |  |  |  | 4.7 |
